High-throughput results deposited in PubChem BioAssay by Broad Institute.
miR122 inh – blocks miR-122 activity in Huh7 sensor cells. Huh7 miR-122 Renilla luciferase sensor, 48 h; neutral wells = 0, positive control = 100. activation (reporter increase), % at 12.5 µM. 0.3% of 340,000 active. AID 602342;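 active = mean replicate activation score at least 90 and every replicate individually at or above 90; inconclusive = only one of the two criteria met; inactive = neither criterion met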;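 note: higher luciferase means less miR-122 activity so hits act as miR-122 inhibitors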
LGR2 inh – Drosophila LGR2 receptor signaling inhibition. HEK293 LGR2, CRE-luciferase, bursicon-stimulated, 4 h. inhibition, % at 9.99 µM. 0.35% of 380,000 active;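 active = drop in luminescence signal, shown as inhibition above about 50% in the replicate tests, limit read from the data, passing the limit was not always enough; inconclusive = probably only some replicates passing the limit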;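 note: agonist challenge used bursicon conditioned medium at about half maximal strength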
CFTR F508del cor – CFTR F508del correction in bronchial cells | 0.36% of 350,000 active | CFBE cells, YFP halide quenching; stimulated with forskolin plus potentiator P3; % fluorescence drop versus neutral controls | activity (quench increase), % at 7.58 µM;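 active = mean added fluorescence quench of at least 8% versus neutral control, with both replicates also reaching 8%; inconclusive = only one of the mean or replicate conditions met; inactive = mean below 8% and not both replicates reaching 8%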;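 note: cells transiently co-express mutant CFTR-F508del with the halide-sensitive YFP; corrector assay measuring rescue of mutant channel to the surface after 24 h compound exposure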
Yeast UUG start – modulators of start codon recognition fidelity in yeast; activity score, % at 18.7 µM; actives 0.13% (n = 350,000); S. cerevisiae UUG-firefly luciferase reporter, luminescence/redox ratio;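 active = replicate mean at a twofold rise or more, about +100% in these data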;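 note: firefly luciferase made from a UUG start codon reports start codon fidelity; reporter light over untreated wells divided by growth signal over untreated wells; some hits fall short of that in this replicate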
EWS-Fli inh – EWS/Fli transcriptional activity inhibition; A673 NR0B1-luciferase reporter, viability-normalised; inhibition, % at 12.6 µM; 0.67% of 350,000 active;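 active = mean inhibition of at least 50% after viability correction, with every replicate also passing that limit; inconclusive = mean reaches 50% but only one of two replicates passes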;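 note: firefly luciferase signal divided by Alamar Blue viability fluorescence both relative to DMSO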
PglD DTNB – blocks C. jejuni PglD acetyltransferase activity; purified PglD enzyme, DTNB colorimetric CoA detection; inhibition, % at 12.5 µM; 0.098% of 360,000 active; AID 602405; in the data active = inhibition above about 16%, passing the limit was not always enough; inconclusive = no clear call, values can overlap the other calls
Large screens that a line does not name were inactive; [ ] = remark or other dose. A selection: hits, their analogues and other compounds. The true share with any hit is near 1.3%.

CCn1c2ccccc2c2cc(CNCc3ccc(OC)cc3OC)ccc21	LGR2 inh 102 (no result: miR122 inh, Yeast UUG start, PglD DTNB)
COc1cc(NC(=S)NCc2ccc(S(N)(=O)=O)cc2)c(OC)cc1Cl	EWS-Fli inh 65 (no result: miR122 inh, CFTR F508del cor, Yeast UUG start, PglD DTNB)
Cn1c(CC(=O)NCCO)c(Sc2ccccc2)c2ccccc21	none (no result: CFTR F508del cor, EWS-Fli inh)
Cn1c(CC(=O)NN)c(Sc2ccccc2)c2ccccc21	CFTR F508del cor 12
Cc1ccc(-c2ccc(CN3C(C(C)C)C(=O)N(Cc4cn(Cc5ccco5)nn4)CCS3(=O)=O)cc2)cc1 (configuration not stated)	none
CCc1ccc(/C=C2\SC(=S)N(CCCC(=O)N(CCO)c3ccccc3)C2=O)cc1	EWS-Fli inh 54
CCOc1ccc(/C=C2\SC(=S)N(CCC(=O)N(CCO)c3ccccc3)C2=O)cc1	none
O=C(CSc1nnc2n1CCCCC2)NCc1ccccc1	none
N#CCc1ccc(NS(=O)(=O)c2ccc(C3CCCCC3)cc2)cc1	miR122 inh 182
COc1ccc(S(=O)(=O)Nc2ccc(CC#N)cc2)cc1	miR122 inh 164 (no result: LGR2 inh, CFTR F508del cor, EWS-Fli inh)
COC(=O)c1ccc(NS(=O)(=O)c2ccc(OC)cc2)cc1	none (no result: CFTR F508del cor, EWS-Fli inh)
O=S(=O)(Nc1cccc(S(=O)(=O)N2CCCC2)c1)c1ccc(Cl)cc1	none
C/C=C/c1cnc2c(c1)C(=O)N([C@H](C)CO)C[C@@H](C)[C@@H](CN(C)Cc1ccccc1F)O2	none (no result: miR122 inh, Yeast UUG start, PglD DTNB)
COc1cc(OC)cc(-c2cc3ccc(OC)cc3cn2)c1	CFTR F508del cor 10
COc1ccc2cc(-c3ccccc3)ncc2c1	LGR2 inh inconclusive
COc1ccc(-c2cc3cc4c(cc3cn2)OCO4)cc1	LGR2 inh 65
CN(C)C(=O)C[C@@H]1C[C@@H]2c3cc(NC(=O)Nc4ccccc4)ccc3O[C@@H]2[C@@H](CO)O1	Yeast UUG start 43
CN(C)C(=O)C[C@H]1C[C@@H]2c3cc(NC(=O)Nc4ccccc4)ccc3O[C@@H]2[C@H](CO)O1	none
O=C(O)C[C@@H]1C[C@@H]2c3cc(NC(=O)CC4CC4)ccc3O[C@@H]2[C@H](CO)O1	none
O=C(O)C[C@@H]1C[C@@H]2c3cc(NC(=O)CC4CC4)ccc3O[C@@H]2[C@@H](CO)O1	Yeast UUG start 50
C[C@@H]1CN([C@H](C)CO)C(=O)c2cc(NC(=O)CCN3CCOCC3)ccc2O[C@@H]1CN(C)Cc1ccc(C(=O)O)cc1	none
Cc1ccc(C)c(SCC(=O)Nc2cccc(S(=O)(=O)N3CCOCC3)c2)c1	none (no result: miR122 inh)
C[C@@H]1CN([C@@H](C)CO)S(=O)(=O)c2ccc(C#CC3CC3)cc2O[C@@H]1CN(C)C(=O)Cc1ccncc1	none
CC[N+]1=C(C)C(C)(C)c2cc(C)ccc21	LGR2 inh 56
CCN1C(=O)C(=O)c2cc(C)ccc21	none
CSc1ccc(C2NN=C(c3ccccc3)S2)cc1 (configuration not stated)	LGR2 inh 84
Oc1ccccc1C1NN=C(c2ccccc2)S1 (configuration not stated)	none
COc1cc(SC)ccc1C(=O)Nc1ccc(Cl)cn1	LGR2 inh 100, EWS-Fli inh 84
CCOC(=O)[C@@H](CCc1ccccc1)N[C@H](C)C(=O)N1[C@H](C(=O)O)C[C@@H]2CCC[C@@H]21	none
CCOC(=O)[C@H](CCc1ccccc1)N[C@@H](C)C(=O)N1[C@H](C(=O)O)C[C@@H]2CCC[C@@H]21	CFTR F508del cor 12
Cc1ccc(NS(=O)(=O)c2ccc(-c3cnc(C4CC4)o3)cc2)c(C)c1	EWS-Fli inh 52
CC(=O)Nc1ccc(NS(=O)(=O)c2cc(-c3cnc(C4CC4)o3)ccc2C)cc1	none
Cc1ccc(-c2cnc(C3CC3)o2)cc1S(=O)(=O)Nc1ccccc1	miR122 inh 334 (no result: LGR2 inh, CFTR F508del cor, EWS-Fli inh)
O=S(=O)(Nc1ccc(F)cc1Cl)c1ccc(-c2cnc(C3CC3)o2)cc1	CFTR F508del cor 14, EWS-Fli inh 57
COc1ccccc1NS(=O)(=O)c1ccc(-c2cnc(C3CC3)o2)cc1	none (no result: EWS-Fli inh)
CCOc1ccccc1NS(=O)(=O)c1ccc(-c2cnc(C3CC3)o2)cc1	miR122 inh 127 (no result: EWS-Fli inh)
Cc1cccc(Nc2nc(CC(=O)O)cs2)c1	none
Cc1ccc(N(C)S(=O)(=O)c2cc(-c3cnc(C4CC4)o3)ccc2C)cc1	none
COc1ccccc1CNS(=O)(=O)c1ccc(-c2cnc(C3CC3)o2)cc1	CFTR F508del cor inconclusive, EWS-Fli inh 61 (no result: miR122 inh)
Cc1cccc(N(C)S(=O)(=O)c2ccc(-c3cnc(C4CC4)o3)cc2)c1	EWS-Fli inh 58 (no result: miR122 inh)
CCN1CC(CNCc2cn(-c3ccc(OC)cc3)nc2-c2ccccc2Cl)CC1=O (configuration not stated)	none (no result: miR122 inh, Yeast UUG start, PglD DTNB)
COc1cccc(S(=O)(=O)N[C@H]2CC[C@H](CCNC(=O)Cc3ccncc3)O[C@H]2CO)c1	none (no result: miR122 inh)
COC(=O)[C@H](CCSC)NC(=O)Cn1cc(C)c(=O)[nH]c1=O	CFTR F508del cor 8.7
O=C(CSc1nc2ccccc2[nH]1)Nc1c(F)cccc1F	none (no result: LGR2 inh, CFTR F508del cor, EWS-Fli inh)
CCCC[C@@H](CNC)NC[C@H](NCCCCC1CCCCC1)C(C)C	none
CC[C@@H](C)[C@H](CNC)NC[C@@H](Cc1cccc2ccccc12)NCCc1cccc(C(F)(F)F)c1	none (no result: miR122 inh)
CCC[C@H](CN[C@@H](CNC)[C@H](C)CC)NCCc1cc(C(F)(F)F)cc(C(F)(F)F)c1	LGR2 inh 63, EWS-Fli inh 52
CCC[C@@H](CN[C@@H](CNC)[C@H](C)CC)NCC1CCC(C(C)(C)C)CC1 (some centres not stated)	EWS-Fli inh 56
O=C(CSc1nnc(-c2cccc(Cl)c2)o1)Nc1ccc2c(c1)OCCO2	none (no result: CFTR F508del cor, EWS-Fli inh)
Clc1ccc(CN2CCN(c3ncc(Cc4ccccc4)cn3)CC2)cc1	none (no result: miR122 inh, Yeast UUG start, PglD DTNB)
CCC1=NN(C(=O)c2ccccc2O)C(O)(c2ccccc2)C1 (configuration not stated)	miR122 inh active (no result: LGR2 inh)
COc1ccccc1N1CCN(/N=C/C=C\c2ccccc2[N+](=O)[O-])CC1	CFTR F508del cor 15 (no result: miR122 inh, Yeast UUG start, PglD DTNB)
COc1ccccc1N1CCN(/N=C/C=C\c2ccco2)CC1	none (no result: LGR2 inh, CFTR F508del cor, EWS-Fli inh)
OCCNC(=S)NCCc1ccccc1	none (no result: miR122 inh, CFTR F508del cor, Yeast UUG start, EWS-Fli inh, PglD DTNB)
CC(C)(CNC(=S)NCCc1ccccc1)CNC(=S)NCCc1ccccc1	miR122 inh 280
Cc1ccc(NS(=O)(=O)c2ccc(NC(=O)C3CC3)cc2)c(C)c1	none
C[C@H]1CN([C@@H](C)CO)C(=O)Cc2cc(NC(=O)Nc3ccc(C(F)(F)F)cc3)ccc2O[C@H]1CN(C)Cc1ccc(C(=O)Nc2ccccc2N)cc1	EWS-Fli inh 79
C[C@@H]1CN([C@@H](C)CO)C(=O)Cc2cc(N(C)C)ccc2O[C@@H]1CN(C)Cc1ccc(C(=O)Nc2ccccc2N)cc1	miR122 inh 138[16.7 µM], CFTR F508del cor 15, EWS-Fli inh inconclusive
O=C(Cn1ncc(Cl)c(Cl)c1=O)N1CCOCC1	LGR2 inh 100, CFTR F508del cor inconclusive (no result: Yeast UUG start, PglD DTNB)
O=C(Cn1ncc(Cl)c(Cl)c1=O)N1CCN(Cc2ccccc2)CC1	LGR2 inh 104, EWS-Fli inh 67 (no result: miR122 inh, Yeast UUG start, PglD DTNB)
